This note sets out measurements from patent US20210030761A1, “TREATMENT AND PREVENTION OF ALPHA HERPES VIRUS INFECTION” (THE REGENTS OF THE UNIVERSITY OF COLORADO, a body corporate, priority 2018, published 2021).

SMILES strings stand for the structures.

What all share (assay type): cell-based, varicella zoster virus
Assay [1] relates to VZV. Briefly: Light microscopy for cytopathic effect in VZV-infected spinal astrocytes. As to conditions: 48 and 72 HPI; 10 μM aprepitant from 12 HPI; versus vehicle-only. How it is done:
Cell Culture and Infection: Primary human spinal astrocytes (HA-sp; Sciencell, Carlsbad, Calif.) were seeded at 5,000 cells/cm' in a basal astrocyte medium containing 2% fetal bovine serum (FBS), 1% astrocyte growth supplement, and 1% 100× penicillin-streptomycin (Sciencell). After 24 hours, medium was changed to basal astrocyte medium containing 0.1% FBS and 1% 100× penicillin-streptomycin that was replenished every 72 hours for 7 days to establish quiescence. On day 7, spinal astrocytes were co-cultivated with VZV-infected spinal astrocytes (40 pfu/mL) or mock-infected spinal astrocytes. […] Light microscopy images to observe a cytopathic effect were obtained at 12, 24, 48 and 72 HPI followed by DNA extraction and PCR quantification of VZV DNA as described below. Substance P ELISA: Substance P was quantitated from mock- and VZV-infected HA-sp using a colorimetric competitive enzyme immunoassay kit according to the manufacturer's instructions (Enzo, Farmingdale, N.Y.). The sensitivity range was 9.76-10,000 pg/mL, as determined by controls run on the same assay as samples. Immunofluorescence Assay: HA-sp were propagated and treated as described above in an ibidi 24-well μ-Plate (ibidi, Martinsried, Germany). […] GFAP and NK-1R were detected using a 1:500 dilution of chicken anti-GFAP (Abcam) and a 1:100 dilution of rabbit anti-NK-1R (Novus Biologicals LLC, Littleton, Colo.), respectively. […]

Assay [2] deals with VZV. Briefly: Total VZV DNA in adult primary human perineurial cells (HPNCs). As to conditions: 72 HPI. From the text:
(§1) At 12, 24, 48, and 72 HPI, cells were visualized by light microscopy in the untreated and treated cultures and harvested for DNA.

Assay [3] deals with VZV. The assay can be described thus: Total VZV DNA in primary adult human pancreatic islet cells. As to conditions: 7.5 μM, 6 days post-infection, versus vehicle.
Description: as §1

Assay [4] deals with VZV. The assay can be described thus: Total VZV DNA in adult primary human keratocytes. As to conditions: 7.5 μM, versus vehicle.
Description: as §1

Assay [5] relates to VZV. The assay can be described thus: Total VZV DNA in primary human brain vascular adventitial fibroblasts. As to conditions: 5 μM and 7.5 μM, 72 hours post-infection.
Description: as §1

Assay [6] concerns VZV. Briefly: Total VZV DNA in Guinea Pig Lung Fibroblasts. As to conditions: 7.5 μM, 72 hours post-infection, versus vehicle.
The test system of assay [7] is VZV. Briefly: Total VZV DNA in primary human microglia. As to conditions: 7.5 μM, versus vehicle.
Description: as §1

As to `C[C@@H](O[C@H]1OCCN(Cc2n[nH]c(=O)[nH]2)[C@H]1c1ccc(F)cc1)c1cc(C(F)(F)F)cc(C(F)(F)F)c1` [aprepitant], the “cytopathic effect (light microscopy)” value with VZV [1] is recorded as “not in aprepitant-treated samples”. The “total VZV DNA” value is given as “significantly reduced total VZV DNA” in the assay with VZV [2] (treated at 24 HPI); “significantly reduced total VZV DNA” with VZV [2] (treated at time of infection); “significantly reduced total VZV DNA” in the assay on VZV [3]; “significantly reduced total VZV DNA” in the assay with VZV [4] (4 days post-infection); “significantly reduced total VZV DNA” in the assay with VZV [4] (7 days post-infection); “dose-dependent reduction in total VZV DNA” in the assay on VZV [5]. Besides, the “total VZV DNA” value in the assay on VZV [6] and in the assay on VZV [7] was “significantly reduced total VZV DNA” throughout.
